Values of other authors, collected in publication PMC2996101 (Journal of natural products, 2009).

Test system: 12-hLO
Details: read-out: previous IC50 12-hLO; previous work without Triton X100 ref 9; cited from earlier work

With `CC(Cc1ccc(O)c(O)c1)C(C)Cc1ccc(O)c(O)c1` (stereo not shown) [Compound 12, NDGA, reference compound] as the compound, how does the IC50 read?
Its IC50 is 42 µM.
